Earlier results on 1 compound are cited in paper PMC8976226 (Mutagenesis, 2022).

In this data set the test system is Salmonella typhimurium, Escherichia coli tester strains. Conditions: hydrolysis products of anisyl formate; cited from earlier work.

Molecules are shown by their SMILES.

For `COc1ccc(CO)cc1` [anisyl alcohol], the “Ames mutagenicity studies result” value is listed as “negative”.
